# In ChEMBL document CHEMBL2396604, “Synthesis and structure activity relationship of tetrahydroisoquinoline-based potentiators of GluN2C and GluN2D containing N-methyl-D-aspartate receptors” (J Med Chem, 2013):
# Sequences of proteins named here, by UniProt entry; tags and fusion partners are left off. A change or cut given only in a name is not applied to a line headed by its entry.
# UniProt Q62645, whole entry: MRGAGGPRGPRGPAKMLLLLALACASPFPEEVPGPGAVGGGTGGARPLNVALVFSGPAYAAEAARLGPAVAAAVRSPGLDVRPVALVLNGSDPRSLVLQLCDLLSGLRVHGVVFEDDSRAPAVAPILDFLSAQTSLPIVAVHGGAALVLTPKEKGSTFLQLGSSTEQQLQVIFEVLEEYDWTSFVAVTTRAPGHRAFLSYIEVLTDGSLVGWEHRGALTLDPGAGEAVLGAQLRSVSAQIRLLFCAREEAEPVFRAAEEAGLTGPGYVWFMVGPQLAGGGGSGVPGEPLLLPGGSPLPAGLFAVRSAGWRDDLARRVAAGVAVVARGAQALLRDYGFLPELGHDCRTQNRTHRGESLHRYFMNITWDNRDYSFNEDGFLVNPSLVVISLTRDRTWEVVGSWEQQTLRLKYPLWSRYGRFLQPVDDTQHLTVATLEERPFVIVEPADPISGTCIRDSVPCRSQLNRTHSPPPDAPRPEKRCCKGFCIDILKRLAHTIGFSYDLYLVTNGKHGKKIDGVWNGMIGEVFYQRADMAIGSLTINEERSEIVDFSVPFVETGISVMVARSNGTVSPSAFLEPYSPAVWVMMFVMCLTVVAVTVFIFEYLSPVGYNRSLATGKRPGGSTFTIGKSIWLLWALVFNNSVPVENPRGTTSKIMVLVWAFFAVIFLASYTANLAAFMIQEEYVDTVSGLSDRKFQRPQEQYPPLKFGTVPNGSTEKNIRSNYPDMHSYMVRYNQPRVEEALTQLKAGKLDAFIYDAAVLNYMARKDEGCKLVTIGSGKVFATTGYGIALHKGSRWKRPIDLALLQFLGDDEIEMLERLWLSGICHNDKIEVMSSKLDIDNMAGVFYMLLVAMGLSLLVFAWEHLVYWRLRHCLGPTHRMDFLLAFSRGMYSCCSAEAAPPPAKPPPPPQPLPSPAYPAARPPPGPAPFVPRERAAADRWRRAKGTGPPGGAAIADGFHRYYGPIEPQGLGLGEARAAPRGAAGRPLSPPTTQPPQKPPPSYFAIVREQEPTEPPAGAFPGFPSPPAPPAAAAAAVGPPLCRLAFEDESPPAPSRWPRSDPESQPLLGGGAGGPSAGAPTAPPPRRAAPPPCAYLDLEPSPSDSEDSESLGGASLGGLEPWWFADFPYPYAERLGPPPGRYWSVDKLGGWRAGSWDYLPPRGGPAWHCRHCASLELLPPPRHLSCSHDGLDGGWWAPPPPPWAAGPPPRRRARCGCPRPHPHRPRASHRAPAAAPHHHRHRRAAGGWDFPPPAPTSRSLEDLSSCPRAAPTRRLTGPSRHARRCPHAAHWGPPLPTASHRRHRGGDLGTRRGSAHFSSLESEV
# UniProt Q00961: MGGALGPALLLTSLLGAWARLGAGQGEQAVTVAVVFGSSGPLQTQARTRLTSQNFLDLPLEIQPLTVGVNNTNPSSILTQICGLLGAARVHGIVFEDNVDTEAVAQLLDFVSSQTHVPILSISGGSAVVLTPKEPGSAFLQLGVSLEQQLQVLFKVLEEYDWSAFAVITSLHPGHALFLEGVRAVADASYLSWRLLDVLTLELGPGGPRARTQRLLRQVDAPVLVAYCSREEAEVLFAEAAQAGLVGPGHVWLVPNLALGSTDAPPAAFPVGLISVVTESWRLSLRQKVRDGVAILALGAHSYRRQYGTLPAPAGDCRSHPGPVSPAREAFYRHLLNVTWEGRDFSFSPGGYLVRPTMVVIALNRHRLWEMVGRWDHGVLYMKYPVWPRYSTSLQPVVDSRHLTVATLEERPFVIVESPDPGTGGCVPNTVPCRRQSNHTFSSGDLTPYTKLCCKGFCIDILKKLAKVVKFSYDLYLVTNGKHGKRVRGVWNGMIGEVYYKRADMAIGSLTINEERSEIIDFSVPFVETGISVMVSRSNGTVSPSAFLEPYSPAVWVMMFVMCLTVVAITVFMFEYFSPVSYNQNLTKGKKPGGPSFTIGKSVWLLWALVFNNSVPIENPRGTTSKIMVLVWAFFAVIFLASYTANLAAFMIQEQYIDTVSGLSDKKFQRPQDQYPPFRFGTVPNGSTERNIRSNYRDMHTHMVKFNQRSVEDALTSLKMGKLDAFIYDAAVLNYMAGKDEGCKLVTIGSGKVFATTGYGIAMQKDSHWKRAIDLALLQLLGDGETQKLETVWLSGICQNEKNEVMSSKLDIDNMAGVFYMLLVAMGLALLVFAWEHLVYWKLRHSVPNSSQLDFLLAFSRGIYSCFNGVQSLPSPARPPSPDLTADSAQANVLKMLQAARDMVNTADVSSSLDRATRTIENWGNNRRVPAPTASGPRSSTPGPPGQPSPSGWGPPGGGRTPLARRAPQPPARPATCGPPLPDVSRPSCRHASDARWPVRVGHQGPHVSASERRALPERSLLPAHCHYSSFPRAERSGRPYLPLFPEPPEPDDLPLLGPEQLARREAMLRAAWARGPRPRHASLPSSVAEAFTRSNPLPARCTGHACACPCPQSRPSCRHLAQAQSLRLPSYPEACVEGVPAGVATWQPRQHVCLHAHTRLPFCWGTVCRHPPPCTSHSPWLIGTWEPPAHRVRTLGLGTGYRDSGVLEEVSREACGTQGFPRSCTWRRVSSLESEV
# Legend:
# [1] = target: Ionotropic glutamate receptor NMDA 1/2D (Rattus norvegicus, UniProt P35439+Q62645); test: Activity at rat recombinant GluN1/GluN2D receptor assessed as potentiation of glycine/glutamate-induced activation by two-electrode voltage clamp technique; format: protein-complex assay
# [2] = target: Glutamate NMDA receptor; Grin1/Grin2c (Rattus norvegicus, UniProt P35439+Q00961); test: Activity at rat recombinant GluN1/GluN2C receptor assessed as potentiation of glycine/glutamate-induced activation by two-electrode voltage clamp technique; format: protein-complex assay
smiles,measurement,setting,value
COc1ccc(OCC2c3ccc(OC)cc3CCN2C(=O)c2cccc(Cl)c2)cc1 (racemic),EC50,[1],1000 nM
same,EC50,[2],1300 nM
